Values quoted from earlier work in article PMC3019532 (Current radiopharmaceuticals, 2010).

Conditions: rats; cited from earlier work

glucose-[^125I-Tyr^3]-octreotate [[^125I]Gluc-TOCA, reference compound]
metabolism, form present in urine: extensive metabolism
